Assay results: PubChem BioAssay AID2097 (Broad Institute, 2009)
The entries are a selection whose mix differs from that of the whole data set. Calls of active or inactive are those of the source.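 How the source made its calls: active means more than half of replicate wells score below -50%, meaning over 50% inhibition versus plate controls; inconclusive means some replicates but at most half score below -50%; inactive means no replicate scores below -50%.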

Protein sequences, listed by entry. Tags and fused reporters are not part of them.
UniProt P49841, whole entry: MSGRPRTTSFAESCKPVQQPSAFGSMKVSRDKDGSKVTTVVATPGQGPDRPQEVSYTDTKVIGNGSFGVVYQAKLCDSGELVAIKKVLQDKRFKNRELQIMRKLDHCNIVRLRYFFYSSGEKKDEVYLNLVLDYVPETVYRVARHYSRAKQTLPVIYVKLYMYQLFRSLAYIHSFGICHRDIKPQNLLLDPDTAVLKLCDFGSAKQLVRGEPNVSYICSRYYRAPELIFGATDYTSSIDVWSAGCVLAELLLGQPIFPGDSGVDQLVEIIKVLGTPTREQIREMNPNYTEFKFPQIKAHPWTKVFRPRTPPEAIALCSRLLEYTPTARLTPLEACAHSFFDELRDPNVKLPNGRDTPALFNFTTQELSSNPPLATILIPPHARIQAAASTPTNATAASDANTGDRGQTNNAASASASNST

The molecules below were run against Glycogen synthase kinase-3 beta (Homo sapiens) (UniProt P49841) (assay: blockers of GSK3B enzyme activity – biochemical, cell-free homogeneous, HTS, primary screen (AID 2097;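 further: 0% = median DMSO wells and -100% = median GW8510 positive control wells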)). Details: GST-GSK3beta kinase, ADP-Glo luminescence, 60 min; at 10 µM; active compounds read low.

Row | SMILES | activity score (negative = inhibition)
1 | CN1CCC(Nc2ccc(F)c(Cl)c2)CC1 | inactive: 0.487%
2 | CCOc1ncccc1C(=O)NCC1(N2CCOCC2)CCCCC1 | inactive: -1.28%
3 | CCCOc1ccc(C(=O)NCC2(N(C)C)CCCCC2)cc1 | inactive: 1.88%
4 | O=C(O)C1(Nc2ccccc2)CCN(Cc2ccccc2)CC1 | inactive: -1.48%
5 | CC(C)(C)OC(=O)N1CCC(Nc2ccccc2)CC1 | inactive: -1.11%
6 | CCC(CO)(C(=O)OC1CN2CCC1CC2)c1ccccc1 (stereo not drawn) | inactive: -0.174%
7 | COc1cccc(C(=O)N(c2cc(C)cc(C)c2)C2CCN(C(=O)OC(C)(C)C)CC2)c1 | inactive: 2.26%
8 | COc1cc(OC)cc(C(=O)NCC2(N3CCOCC3)CCCCC2)c1 | inactive: 0.524%
9 | CCCOc1ccc(C)cc1CN(CCCl)CCCl | inactive: 2.3%
10 | CN1CCC(Nc2ccc(Cl)cc2)CC1 | inactive: -0.783%
11 | COc1cc(OC)cc(C(=O)NCC2(N3CCCCC3)CCCCC2)c1 | inactive: 2.11%
12 | Fc1ccccc1NC1CCN(Cc2ccccc2)CC1 | inactive: 1.25%
13 | Cc1ccc(C(=O)NCC2(N3CCCCC3)CCCCC2)o1 | inactive: 4.16%
14 | CCN1CCC(Nc2cccc(F)c2)CC1 | inactive: -1.57%
15 | CN(C)c1ccc(C(=O)NCC2(N3CCCCC3)CCCCC2)cc1 | inactive: -2.07%
16 | CC(C)(C)OC(=O)N1CCC(N(C(=O)c2ccccc2)c2ccc(Cl)cc2)CC1 | inactive: 0.693%
17 | N#Cc1ccc(C(=O)NCC2(N3CCCCC3)CCCCC2)cc1 | inactive: 1.61%
18 | CCCN1CCC(Nc2cc(OC)cc(OC)c2)CC1 | inactive: 1.36%
19 | c1ccc(CN2CCC(Nc3ccccc3)CC2)cc1 | inactive: 1.91%
20 | CN(C)C1(CNC(=O)c2cccc(C#N)c2)CCCCC1 | inactive: 2.2%

Row | SMILES | activity score (negative = inhibition)
21 | COc1ccc(C(=O)NCC2(N3CCOCC3)CCCCC2)cc1OC | inactive: 1.35%
22 | N/C(=N\O)c1c(N)no[n+]1[O-] | inactive: -1.57%
23 | CCOC(=O)N1CCC(Nc2ccc(C)cc2)CC1 | inactive: 1.76%
24 | O=C(OC1CN2CCC1CC2)C1c2ccccc2C=Cc2ccccc21 (stereo not drawn) | inactive: -0.139%
25 | CCc1cc(C(=O)NCC2(N3CCCCC3)CCCCC2)sc1C | inactive: 3.3%
26 | CN(C)c1cccc(C(=O)NCC2(N3CCCCC3)CCCCC2)c1 | inactive: 2.46%
27 | COc1ccc(CN(CCCl)CCCl)cc1Cl | inactive: 1.93%
28 | CC(C)c1ccc(NC2CCN(C(=O)OC(C)(C)C)CC2)cc1 | inactive: 3.83%
29 | COc1cc(OC)c(C(=O)NCC2(N(C)C)CCCCC2)cc1OC | inactive: -4.28%
30 | CN1CCC(Nc2cccc(F)c2)CC1 | inactive: -0.802%
31 | CCCOc1ccc(C(=O)NCC2(N(C)C)CCCCC2)cc1OC | inactive: -0.622%
32 | O=C(NCC1(N2CCCCC2)CCCCC1)c1ccc(OC(F)F)cc1 | inactive: -1.23%
33 | O=C(NCC1(N2CCCCC2)CCCCC1)c1cccc([N+](=O)[O-])c1 | inactive: -0.87%
34 | N#CC1(Nc2ccccc2)CCN(CCc2ccccc2)CC1 | inactive: -1.81%
35 | CCN1CCC(Nc2ccc(Cl)cc2)CC1 | inactive: -1.78%
36 | O=C(NCC1(N2CCCCC2)CCCCC1)c1cccc(C(F)(F)F)c1 | inactive: 0.341%
37 | COc1ccc(NC2CCN(C(=O)OC(C)(C)C)CC2)cc1 | inactive: 0.317%
38 | CN1CCN(CCOC(=O)C(O)(c2ccccc2)c2ccccc2)CC1 | inactive: 7.35%
39 | O=C(NCC1(N2CCOCC2)CCCCC1)c1cc(=O)[nH]c2ccccc12 | inactive: -0.779%
40 | COc1cc(C(=O)NCC2(N3CCCCC3)CCCCC2)ccc1OC(F)F | inactive: 3.95%

Row | SMILES | activity score (negative = inhibition)
41 | CCOc1ccc(C)cc1CN(CCCl)CCCl | inactive: -0.19%
42 | CCOC(=O)N1CCC(Nc2ccc(F)cc2)CC1 | inactive: -4.84%
43 | COc1ccc(NC2CCN(CCc3ccccc3)CC2)c(OC)c1 | inactive: -3.5%
44 | O=C(NCC1(N2CCCCC2)CCCCC1)c1ccc(F)cc1 | inactive: -5.31%
45 | Cc1ccc(OCC(C)C)c(CN(CCCl)CCCl)c1 | inactive: -1.22%
46 | COc1cc(C(=O)NCC2(N(C)C)CCCCC2)ccc1OC(F)F | inactive: -1.21%
47 | CCOC(=O)N1CCC(Nc2cccc(C)c2)CC1 | inactive: -0.625%
48 | O=C(NCC1(N2CCCCC2)CCCCC1)c1cccs1 | inactive: 1.94%
49 | O=C(NCC1(N2CCCCC2)CCCCC1)c1ccc(=O)[nH]c1 | inactive: 1.7%
50 | CC(C)(C)OC(=O)N1CCC(N(C(=O)c2ccccc2)c2ccc(F)cc2)CC1 | inactive: 4.48%
51 | COc1ccc(C(=O)NCC2(N3CCCCC3)CCCCC2)c(OC)c1OC | inactive: -0.61%
52 | COc1ccc(C(=O)NCC2(N3CCCCC3)CCCCC2)cc1 | inactive: -0.58%
53 | O=C(NCC1(N2CCOCC2)CCCCC1)c1cc2ccccc2o1 | inactive: 2.26%
54 | Cc1cc(C)cc(N(C(=O)c2ccccc2)C2CCN(C(=O)OC(C)(C)C)CC2)c1 | inactive: -4%
55 | O=C(NCC1(N2CCCCC2)CCCCC1)c1ccc(Cl)nc1 | inactive: 2.02%
56 | CCOC(=O)N1CCC(Nc2ccc(OC)cc2)CC1 | inactive: -0.582%
57 | O=C(OC1CN2CCC1CC2)C1c2ccccc2Oc2ccccc21 (stereo not drawn) | inactive: 2.71%
58 | N#CC1(Nc2ccccc2)CCN(Cc2ccccc2)CC1 | inactive: 1.03%
